# Literature values, collected in paper PMC1190152, “Archazolid and apicularen: Novel specific V-ATPase inhibitors” (BMC Biochemistry, 2005).
# Sequences of proteins named here, by UniProt entry; tags and fusion partners are left off.
# UniProt P31403, whole entry: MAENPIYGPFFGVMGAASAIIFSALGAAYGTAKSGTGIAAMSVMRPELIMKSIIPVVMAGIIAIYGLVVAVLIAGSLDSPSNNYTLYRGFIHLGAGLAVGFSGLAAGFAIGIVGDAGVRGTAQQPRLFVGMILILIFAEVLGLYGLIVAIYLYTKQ
# Biological target: T1, V-ATPase holoenzyme from the midgut of the tobacco hornworm (Manduca sexta, UniProt P31403)
# T1 construct: purified V-ATPase holoenzyme from the midgut of the tobacco hornworm; from tissue; host or cells: midgut of fifth instar Manduca sexta larvae
# Design: method as in PMID 12186879
# Details: ref [10], cited from earlier work
smiles,measurement,setting,value
"CO/C1=C\C(C)=C\[C@@H](C)[C@@H](O)[C@@H](C)C/C(C)=C/C=C/[C@H](OC)[C@@H]([C@@H](C)[C@@H](O)[C@H](C)[C@@]2(O)C[C@@H](O)[C@H](C)[C@@H](C(C)C)O2)OC1=O [bafilomycin A1, reference compound]",IC50,read-out: half-maximal inhibition concentration of purified V-ATPase,~10 nM
same,"IC50 per mg of protein, purified V-ATPase",,ca. 0.5 nmol per mg of protein
